Experimental data: PMC9783754, “Specific S100 Proteins Bind Tumor Necrosis Factor and Inhibit Its Activity” (International Journal of Molecular Sciences, 2022)

The chains behind the UniProt entries cited, without tags or fusion partners. A line that says so, or that is headed by a name, gives the form on record, which may keep a tag or linker.
UniProt P01375, other isoform, or with tags, fused parts or gaps: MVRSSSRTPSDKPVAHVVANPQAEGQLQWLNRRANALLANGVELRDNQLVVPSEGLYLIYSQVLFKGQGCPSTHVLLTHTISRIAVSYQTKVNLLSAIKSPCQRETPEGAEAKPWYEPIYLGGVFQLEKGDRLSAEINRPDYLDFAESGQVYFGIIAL

Target: T1, Recombinant human sTNF (soluble form of tumor necrosis factor) (human, UniProt P01375 77-233)
T1 construct: additional N-terminal methionine, stated in words; tumor necrosis factor, human, soluble form (157 residues), residues 77-233 of UniProt entry P01375; Monomeric on the SPR chip after long flushing and glycine pH 3.3 washes; multimeric in solution in the fluorimetric titrations and cross-linking; also called TNF-α; TNF ligand superfamily member 2; source: bought: Prospec-Tany Technogene (catalog # …)
Test: SPR; ligand (50 μg/mL sTNF or TNF-β) immobilised on a ProteOn GLH chip by amine coupling; chip flushed with running buffer for two days and several times with 10 mM glycine pH 3.3 to dissociate sTNF multimers (monomeric sTNF); Ca2+-loaded S100 protein as analyte, 10 nM–2 µM; 25 °C; 10 mM HEPES, 150 mM NaCl, 1 mM CaCl2, 0.05% TWEEN 20, pH 7.4; heterogeneous ligand model
Details: both partners purified

B1: Recombinant human S100A1 (natural protein, UniProt P23297 1-94, looked up)
chain: MGSELETAMETLINVFHAHSGKEGDKYKLSKKELKELLQTELSGFLDAQKDVDAVDKVMKELDENGDGEVDFQEYVVLVAALTVACNNFFWENS
notes: S100A1, human; Ca2+-loaded in the assay; source: E. coli, purified as previously described
Binder B1 has a Kd greater than 100 µM.
